Source: patent US6673802B2, “Compounds specific to adenosine A3 receptor and uses thereof” (OSI Pharmaceuticals, Inc., priority 2000, dated 2004)

Chains of the proteins cited; added tags and fusions are not shown.
UniProt P0DMS8, whole entry: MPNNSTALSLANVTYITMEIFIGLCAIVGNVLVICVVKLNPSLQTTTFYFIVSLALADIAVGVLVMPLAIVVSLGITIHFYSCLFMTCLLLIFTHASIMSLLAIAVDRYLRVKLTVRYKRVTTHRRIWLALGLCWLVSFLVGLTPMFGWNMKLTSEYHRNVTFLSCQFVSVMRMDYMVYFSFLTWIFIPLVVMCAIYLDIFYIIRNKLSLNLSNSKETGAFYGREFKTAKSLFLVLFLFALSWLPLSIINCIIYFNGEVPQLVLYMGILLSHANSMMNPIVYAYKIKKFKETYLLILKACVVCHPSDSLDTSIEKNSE

Assays:
[1] = biological target: human A2a receptor subtype (Homo sapiens, UniProt P29274); assay: Adenosine 2a receptor subtype competition radioligand binding ([3H]CGS-21680, HEK293 membranes); conditions: Table 13; probably % activity @ 10 μM (footnote 8)
[2] = biological target: human A3 receptor subtype (Homo sapiens, UniProt P0DMS8); assay: Adenosine 3 receptor competition radioligand binding ([125I]AB-MECA, HEK293 membranes); conditions: Table 13

| A2a, value printed as % [1] | A3 % activity @ 10 μM [2] | Compound |
| --- | --- | --- |
| 65% |  | Cc1[nH]c2nc(-c3ccccc3)nc(NCCNC(=O)C3(N)CC3)c2c1C |
|  | 54%^8 | O[C@H]1CC[C@H](Nc2nc(-c3ccncc3)nc3[nH]ccc23)CC1 |
